# Assay: physchem
# Conditions: 50% DMSO, aqueous with cosolvent or surfactant or cyclodextrin
compound,measurement,value
"O=S(=O)(F)Cc1ccccc1 [PMSF, phenylmethylsulfonyl fluoride]",solubility,≥ 10 mM

# Reference: US20070110901A1, “Method for identifying weakly binding molecule fragments having ligand properties, whereby the molecule fragments are applied in the form of microdrops of a corresponding solution to the crystal” (Proteros Biostructures GMBH, priority 2003, published 2007)
